Results from patent US7348300B2, “Acetylenic diol ethylene oxide/propylene oxide adducts and processes for their manufacture” (Air Products and Chemicals, Inc., priority 1999, dated 2008).

Experiments:
[1] = Ross-Miles foam test based upon ASTM D 1173-53; format: physicochemical; details: 0.1 wt % solution
Method: In this test, a 0.1 wt % solution of the surfactant is added from an elevated foam pipette to a foam receiver containing the same solution. The foam height is measured at the completion of the addition (“Initial Foam Height”) and the time required for the foam to dissipate is recorded (“Time to 0 Foam”). This test provides a comparison between the foaming characteristics of various surfactant solutions. In general, in coatings, inks, and agricultural formulations, foam is undesirable because is complicates handling and can lead to coating and print defects, and to inefficient application of agricultural materials.

[2] = Dynamic surface tension of aqueous solutions, maximum bubble pressure method; details: for Dynamic Surface Tension: 0.1 wt % solution in water
From the text: In the following Examples dynamic surface tension data were obtained for aqueous solutions of various compounds using the maximum bubble pressure method at bubble rates from 0.1 bubbles/second (b/s) to 20 b/s. […] In practical terms, high bubble rates correspond to high printing speeds in lithographic printing, high spray or roller velocities in coating applications, and rapid application rates for agricultural products.
This value is a measure of the efficiency of a surfactant.
The critical aggregation concentrations (solubility limit or critical micelle concentration) were determined by intersection of the linear portion of a surface tension/ In concentration curve with the limiting surface tension as is described in many textbooks. The limiting surface tensions at 0.1 and 20 bubbles/second (b/s) represent the lowest surface tensions in water which can be achieved at the given surface creation rate for a given surfactant regardless of the amount of surfactant used. These values give information about the relative ability to a surfactant to reduce surface defects under near-equilibrium condition (0.1 b/s) through very dynamic conditions (20 b/s). Lower surface tensions would allow the elimination of defects upon application of a formulation onto lower energy surfaces.
Process solutions containing 0.1 weight percent of a surfactant derived from 2,5,8,11-tetramethyl-6-dodecyne-5,8-diol or containing a fluorosurfactant, potassium perfluorooctane carboxylate provided by 3M of […]. were prepared in order to compare the equilibrium surface tension (EST) and dynamic surface tension (DST). The EST for both solutions was measured using the Wilhemy plate method on a […] manufactured by Kruss, Inc. of Charlotte, N.C. The DST of each process solution was measured via the maximum bubble pressure method.

## 5 mole ethylene oxide, 2 mole propylene oxide adduct of 2,4,7,9-tetramethyl-5-decyne-4,7-diol [Example 6]
[1]
  RM Foam initial (Initial Foam Height): 1.1 cm
  RM Foam t to 0 (Time to 0 Foam): 5 s
[2]; 1 b/s
  Dynamic Surface Tension: 30.0 dyne/cm
[2]; 6 b/s
  Dynamic Surface Tension: 37.1 dyne/cm
[2]; solubility limit or critical micelle concentration in water
  Sol Limit / critical aggregation concentration (CAG): 0.10 wt %
